Data from PubChem BioAssay AID1478 (National Center for Advancing Translational Sciences (NCATS), 2009).
Where “and” joins values, the source holds several entries; their conditions need not be identical. Identical values can stand only once. The entries are a selection whose mix differs from that of the whole data set. Calls of active or inactive are those of the source. Calls follow the shape of the dose curve; as a rule, active = well fitted inhibition curve with a large enough effect; inconclusive = small, poorly fitted or top-dose-only effect; inactive = flat fitted curve, though single readings scatter.

Sequences of proteins named here, by UniProt entry; tags and fusion partners are left off. Residues count along the entry.
UniProt P25779, 123-467 limits assumed: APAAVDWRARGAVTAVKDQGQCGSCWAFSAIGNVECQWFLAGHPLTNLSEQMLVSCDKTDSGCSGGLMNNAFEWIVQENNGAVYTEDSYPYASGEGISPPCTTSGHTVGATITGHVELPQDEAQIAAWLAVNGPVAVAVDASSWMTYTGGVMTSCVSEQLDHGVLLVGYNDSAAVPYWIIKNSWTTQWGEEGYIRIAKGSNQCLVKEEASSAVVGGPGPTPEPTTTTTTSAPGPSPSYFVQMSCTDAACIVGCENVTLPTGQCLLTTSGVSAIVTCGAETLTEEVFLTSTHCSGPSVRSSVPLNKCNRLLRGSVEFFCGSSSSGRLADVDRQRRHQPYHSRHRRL

Target: Cruzipain (Trypanosoma cruzi) (UniProt P25779)
Experiment: qHTS Assay for Promiscuous and Specific Inhibitors of Cruzain (with detergent);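 also: plate controls were neutral wells for no effect and buffer without enzyme for full effect; nearly all actives have a fitted effect of over 40% in size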
Details: purified cruzain, Z-FR-AMC fluorescence, 0.01% Triton
Experimental: Cruzain (3.4.22.51) is a cysteine protease from the tropical parasite Trypanosoma cruzi. Dual qHTS experiment was performed against the NCGC compound collection in order to 1) identify novel inhibitors of the enzyme and 2) profile the compound collection for promiscuous inhibitors operating via colloidal aggregation (by performing detergent-free and detergent-containing comparison screens). Cruzain was assayed by the use of fluorogenic coumarin-based substrate Z-FR-AMC: proteolytic cleavage releases AMC, whose fluorescence is measured at 360 nm excitation and 450 nm emission. Purified cruzain was supplied by the labs of Prof. James McKerrow and Brian Shoichet, UC San Francisco.
This assay had 0.01% Triton X-100 concentration. See also releated assay "qHTS Assay for Promiscuous and Specific Inhibitors of Cruzain (without detergent)" with 0.00005% Triton X-100.
See following references for additional details: […]
Three uL of enzyme or buffer were dispensed to 1536-well Greiner black solid bottom plates. […] The plates were immediately transferred to and read 4 times every 30 seconds for 2 min on ViewLux High-throughput CCD imager (Perkin-Elmer) using 360 nm excitation and 450 nm emission fluorescence protocol. The fluorescence intensity difference between the third and the first time points (time lapse of 60 seconds) was used to compute reaction progress.

Which max response, negative = inhibition does the source give for `O=[N+]([O-])C(Cl)(Cl)Cl` here?
The max response, negative = inhibition was inactive: 8.13%.

With `CN(CCCl)CCCl` as the molecule, how does the max response, negative = inhibition read?
The max response, negative = inhibition was inactive: -2.75% and inactive: -2.66%.
